Source: patent US20160032347A1, “NOVEL METHOD AND DEVICE FOR WHOLE-CELL BACTERIAL BIO-CAPACITOR CHIP FOR DETECTING CELLULAR STRESS INDUCED BY TOXIC CHEMICALS” (Sabanci Universitesi, priority 2011, published 2016)
Read-outs that look alike come from different tables or passages of the source.

Test system: E. coli cells

Structure (SMILES)	change in capacitance response (294 mM (1%), irrespective of exposure time (1 h, 3 h))	capacitance response (588 mM (2%), 3 h exposure)	capacitance response (882 mM (3%), 3 h exposure)	response at initial 1 h exposure (FIG. 11) (350 MHz)	concentration toxic to cells (oxidative stress) (3 h exposure, 350 MHz, 882 mM = 3%)	concentration at which the capacitance response declined due to oxidative toxicity in cells (higher level, 882 mM = 3%)	concentration at which the E. coli biochip exhibited adaptive responses (oxidative stress, lower concentrations)	severity of effect on cells compared with the other model chemicals (350 MHz, 1 and 3 h)	concentration above which salt stress is induced (capacitance tends to decrease) (3 h exposure, 342 mM = 2%)	concentrations at which cells were not affected by salt stress (3 h exposure, 1-2%)	concentration giving mild adaptive responses (initial 1 h of treatment, 0-3%)	concentration at which cells tend to experience salt stress (initial 1 h of treatment, 684 mM = 4%)	concentration levels by which E. coli cells were not severely affected (cells resist salt stress) (salt stress, 513-684 mM = 3-4%)
OO [H2O2, hydrogen peroxide]	negligible change in capacitance response	higher capacitance responses	considerably reduced capacitance responses	adaptive responses	882000 µM	882000 µM	< 2%						
[Cl-].[Na+] [NaCl, sodium chloride]				increase in capacitance				not severely affected	above 342 mM	171000 to 342000 µM	0 to 5.13e+08 nM	684000 µM	513000 to 684000 µM
